# Laboratory results from PubChem BioAssay AID1024 (Sanford-Burnham Center for Chemical Genomics, 2008).
# The chains behind the UniProt entries cited, without tags or fusion partners.
# UniProt P11712, whole entry, looked up: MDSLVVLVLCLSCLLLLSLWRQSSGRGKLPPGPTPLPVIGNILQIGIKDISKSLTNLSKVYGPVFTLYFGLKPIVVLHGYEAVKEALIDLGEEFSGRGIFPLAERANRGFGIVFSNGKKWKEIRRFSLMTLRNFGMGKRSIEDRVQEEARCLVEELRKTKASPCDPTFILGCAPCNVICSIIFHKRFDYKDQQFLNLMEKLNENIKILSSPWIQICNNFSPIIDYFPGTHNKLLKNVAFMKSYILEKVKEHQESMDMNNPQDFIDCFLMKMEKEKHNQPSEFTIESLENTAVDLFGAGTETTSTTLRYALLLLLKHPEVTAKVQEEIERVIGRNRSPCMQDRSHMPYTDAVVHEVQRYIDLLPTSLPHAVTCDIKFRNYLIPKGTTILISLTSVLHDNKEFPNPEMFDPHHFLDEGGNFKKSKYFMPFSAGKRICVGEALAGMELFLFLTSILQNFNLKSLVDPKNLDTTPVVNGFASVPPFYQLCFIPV
# The list shows a part of the results, in another mix than the full data. Calls of active or inactive are those of the source.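 Rule for the calls: active = activation factor of 2 or more for CYP2C9 at a 5 µM dose; inactive = the rest.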
# Biological target: Cytochrome P450 2C9 (Homo sapiens) (UniProt P11712)
# Experiment: human CYP2C9 activators, primary screen, biochemical, luminescence (AID 1024);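 note: 0 = sulfaphenazole-blocked wells and 1 = vehicle-only wells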
# Conditions: recombinant CYP2C9, luciferin-H conversion, at 5 µM, hits give high values, factor 1 = untreated enzyme, 0 = blocked
row,Structure (SMILES),activation factor
1,CCN(CC)C(=S)SC(NC=O)C(Cl)(Cl)Cl (stereo not given),inactive: 1.1
2,O=C(OC1CN2CCC1CC2)C12CC3CC(CC(C3)C1)C2 (stereo not given),inactive: 1.2
3,O=C(COc1ccccc1)OC1CN2CCC1CC2 (stereo not given),inactive: 1.1
4,COP1(=S)c2c(C)nn(CCC#N)c2N=C(c2ccc(F)cc2)N1C (stereo not given),inactive: 0.7
5,Cc1nn(-c2ccccc2)c2c1P(=O)(N1CCOCC1)N(C)C(c1ccccc1)=N2 (stereo not given),inactive: 0.9
6,Cc1ccc(OCC(=O)OC2CN3CCC2CC3)cc1 (stereo not given),inactive: 1.1
7,O=P1(Nc2ccc(Br)cn2)COc2ccccc2OC1,inactive: 0.6
8,O=P1(Nc2ncccn2)COc2ccccc2OC1,inactive: 1
9,Clc1n[nH]nc1-c1nn[nH][15n]1,inactive: 1
10,O=P1(Nc2ccccn2)COc2ccccc2OC1,inactive: 0.9
11,Cc1cccc(OCC(=O)OC2CN3CCC2CC3)c1 (stereo not given),inactive: 0.9
12,CCOP1(=S)c2c(C)nn(CCC#N)c2N=C(c2ccccc2F)N1C (stereo not given),inactive: 0.4
13,O=P(Nc1nccs1)(c1ccccc1)c1nc2ccccc2s1 (stereo not given),inactive: 0.4
14,CCOP1(=S)c2c(C)nn(CCC#N)c2N=C(c2ccc(F)cc2)N1C (stereo not given),inactive: 0.5
15,O=[N+]([O-])c1ccc2c(c1)nnn2O,inactive: 1.2
16,CCOC(=O)NC(Sc1ccccc1)C(Cl)(Cl)Cl (stereo not given),inactive: 0.7
17,CCC(=O)N1C2C3N(C(=O)CC)C1C1N(C(=O)CC)C(C(N1C(=O)CC)N3C(=O)CC)N2C(=O)CC,inactive: 0.6
18,COC(=O)c1cc2c(s1)N=C(c1ccccc1)N(C)P2(=O)N1CCOCC1 (stereo not given),inactive: 0.9
19,O=P1(Nc2nc3ccc(Cl)cc3s2)COc2ccccc2O1 (stereo not given),inactive: 0.6
20,c1nnnn1CCn1cnnn1,inactive: 1.1
21,O=P(Nc1nccs1)(c1ccccc1)c1ccccc1,inactive: 0.7
22,O=C(OC1CN2CCC1CC2)c1cccc(Cl)c1 (stereo not given),inactive: 1.1
23,CCc1nc2c(n1)c1c(non1O)c1c2no[n+]1[O-],inactive: 0.8
24,CC(=O)N1C2C3N(C(C)=O)C1C1N(C(C)=O)C(C(N1C(C)=O)N3C(C)=O)N2C(C)=O,inactive: 0.9
25,O=[N+]([O-])c1cccc2n[nH]nc12,inactive: 1.2
26,CC1CCN(C(=O)Oc2c(Cl)cc(Cl)c3cccnc23)CC1,inactive: 1
27,Oc1ccccc1CNc1ccccn1,inactive: 1.1
28,Cc1c2non([O-])c-2c(C)[n+](=O)[n+]1[O-],inactive: 1
29,CC(C)CC(=O)NC(Sc1ccc(Cl)cc1)C(Cl)(Cl)Cl (stereo not given),inactive: 0.5
30,CCOP(=O)(Nc1ccccc1)OCC,inactive: 1.1
